A selection: hits, their analogues and other compounds. The true share with any hit is near 2.3%.
Nrf2 activator: activates Nrf2 signaling; AREc32 ARE-luciferase reporter (MCF7-derived line), luminescence, 24 h; Potency, µM (doses to about 46.1 µM), for inactives: top-dose activation, actives largely listed as activators; 410,000 tested, 0.31% active; AID 624171; note: potency is the fitted concentration of half-maximal effect; % of control where 0% means no effect; nearly all actives have a fitted effect of over 65% in size
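AREc32 cells carrying an ARE-driven firefly luciferase reporter were seeded at 1000 cells/well in OPTI-MEM with 5% FBS, then exposed to compound for 24 hr at 37 deg C. Luminescence was read with Steady-Glo after 30 min at RT.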
Nrf2 block: inhibitors of Nrf2 signaling | 360,000 tested, 2.1% active | A549 ARE-Fluc reporter, luciferase luminescence, 18-24 h | Potency, µM (top dose mostly 46 µM), for the others: at the highest dose activity change, negative = inhibition, actives largely listed as inhibitors; note: potency is the fitted concentration of half-maximal effect; % is set by controls: 0 for no effect and ±100 for the full control effect; nearly all actives have a fitted effect of over 60% in size
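A549 ARE_Fluc cells, 5000/well, 5% FBS OPTI-MEM; compounds in dose-response, 18-24 h at 37 °C/5% CO2; CellTiter-Fluor viability read (Ex 405/Em 525), then BugLite luciferase luminescence = Nrf2 activity.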
Mito fusion act: mitochondrial division inhibition or fusion activation. 320,000 tested, 0.23% active. Potency, µM (doses to about 46.1 µM), for inactives: at the top dose growth rescue (activation), actives largely listed as activators. AID 485298. S. cerevisiae fusion-defective mutant growth rescue, CellTiterGlo 48 h; note: potency is the fitted concentration of half-maximal effect; % of control where 0% means no effect; nearly all actives have a fitted effect of over 45% in size
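Luminescent cell viability in 1536-well qHTS format served as the measure of rescued growth in ts fusion-mutant S. cerevisiae cultured on non-fermentable YPEG for 48 hours at 37C.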
miR-21 reporter: miR-21 reporter, rising signal; HeLa miR-21 FLuc reporter, luciferase, 48 h; Potency, µM (titrated, usually from 38.3 µM), without a hit: top-dose reporter change, positive = more light; AID 2288; 340,000 tested, under 10 active; active = well fitted rising curve with a large enough effect; inconclusive = small, poorly fitted or top-dose-only effect; inactive = no such curve, though single readings can be large or run the other way;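 further: % of control where 0% means no effect; miR-21 action dims this reporter so a rising signal means less miR-21 action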
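HeLa cells stably expressing CMV-driven firefly luciferase with a downstream miR-21 binding sequence, endogenously expressing miR-21, were treated with titrations (up to about 40uM final) for 48 hours at 37 degree Celsius. Luciferase luminescence was read after lysis.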
A549 tox: kills or reduces viability of A549 cells in Nrf2 counter-screen; Potency, µM (highest dose often 46 µM), for the others: top-dose activity change, negative = cytotoxicity, actives largely listed as inhibitors; AID 504648; A549 ARE-Fluc cells, CellTiter-Fluor viability, 18-24 h; 390,000 tested, 0.16% active; note: potency is the fitted concentration of half-maximal effect; % is set by controls: 0 for no effect and ±100 for the full control effect
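Cytotoxicity counterscreen: CellTiter-Fluor fluorescence was measured in A549 ARE_Fluc cells after 18-24 h of compound exposure in a concentration series. The subsequent BugLite luminescent read reports ARE-luciferase activity.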
The depositor's hits bear a star. Unless noted, calls come from the whole dose curve; as a rule, active = well fitted curve in the direction sought with a large enough effect; inconclusive = small, poorly fitted or top-dose-only effect, or another doubt; inactive = no such curve, though single readings can be large; an effect the other way counts as inactive or inconclusive.

`CC(=O)c1sc(NC(=O)CS(=O)(=O)c2ccc(F)cc2)nc1C` gave Nrf2 activator 0.0%, Nrf2 block 12.1%, Mito fusion act -2.3% and A549 tox 5.4%.
For CC(C)(C)c1nnc(NC(=O)CCS(=O)(=O)c2ccccc2)s1 the results were Nrf2 activator 15.8µM*, Nrf2 block -10.3%, Mito fusion act -3.6%, miR-21 reporter 3.0% and A549 tox 0.1%.
N#Cc1ccsc1NC(=O)CCS(=O)(=O)c1ccccc1 was read as Nrf2 activator 14.1µM*, Nrf2 block -14.9%, Mito fusion act -0.6%, miR-21 reporter -0.5% and A549 tox -1.1%.
`Cc1cccc(CCNC(=O)C2CCN(c3ncnc4c3nc3n4CCCCC3)CC2)c1` gave Nrf2 activator 0.4%, Nrf2 block inconclusive, miR-21 reporter -20.5% and A549 tox 0.1%.
For O=S(=O)(c1ccc2c(c1)OCO2)N1CCN(c2nnnn2-c2ccccc2)CC1 the results were Nrf2 activator 0.1%, Mito fusion act 5.01µM*, miR-21 reporter -4.0% and A549 tox -0.3%.
Screening CN1/C(=C\C=C2/SC(=S)NC2=O)C(C)(C)c2ccccc21 returned Nrf2 activator 4.9%, Nrf2 block inconclusive, Mito fusion act 0.8%, miR-21 reporter 20.3% and A549 tox 14.6µM*.
Screening O=C(CCN1CCCCC1)c1ccc2c(c1)OCCO2 returned Nrf2 activator 17.8µM*, Nrf2 block 6.0%, Mito fusion act -1.2%, miR-21 reporter 10.5% and A549 tox 4.5%.
Screening O=C(CCN1CCC(c2ccccc2)C1)c1ccccc1 (stereo not drawn) returned Nrf2 activator 7.7%, Mito fusion act 1.7%, miR-21 reporter -6.2% and A549 tox 2.1%.
For O=C(CCN1CCC(c2ccccc2)C1)c1ccc2c(c1)OCCO2 (stereo not drawn) the results were Nrf2 activator 8.91µM*, Nrf2 block -18.6%, Mito fusion act -5.1%, miR-21 reporter inconclusive and A549 tox -1.9%.
For Cc1ccc(NS(=O)(=O)c2c(C)nc3sccn3c2=O)c(Cl)c1 the results were Nrf2 activator -1.1%, Nrf2 block inconclusive, miR-21 reporter 0.3% and A549 tox 5.4%.

Reprinted from the part before: 4 entries, then new ones.
Screening O=C(CCN1CCCCC1)c1ccc2c(c1)OCCO2 returned Nrf2 activator 17.8µM*, Nrf2 block 6.0%, Mito fusion act -1.2%, miR-21 reporter 10.5% and A549 tox 4.5%.
Screening O=C(CCN1CCC(c2ccccc2)C1)c1ccccc1 (stereo not drawn) returned Nrf2 activator 7.7%, Mito fusion act 1.7%, miR-21 reporter -6.2% and A549 tox 2.1%.
For O=C(CCN1CCC(c2ccccc2)C1)c1ccc2c(c1)OCCO2 (stereo not drawn) the results were Nrf2 activator 8.91µM*, Nrf2 block -18.6%, Mito fusion act -5.1%, miR-21 reporter inconclusive and A549 tox -1.9%.
For Cc1ccc(NS(=O)(=O)c2c(C)nc3sccn3c2=O)c(Cl)c1 the results were Nrf2 activator -1.1%, Nrf2 block inconclusive, miR-21 reporter 0.3% and A549 tox 5.4%.
For Cc1ccc(-n2[nH]c(C)c(/C=N/Nc3ccc([N+](=O)[O-])cc3[N+](=O)[O-])c2=O)cc1C the results were Nrf2 activator 5.9%, Nrf2 block inconclusive, Mito fusion act -4.1%, miR-21 reporter -4.0% and A549 tox 16.4µM*.
For Cc1[nH]n(-c2ccccc2)c(=O)c1/C=N/NC(=O)c1cccc([N+](=O)[O-])c1 the results were Nrf2 activator -0.2%, Nrf2 block -17.4%, Mito fusion act 1.2%, miR-21 reporter -2.8% and A549 tox -8.4%.
Screening CC(C)C(=O)Nc1cccc(C(=O)Nc2nnc(C(F)(F)F)s2)c1 returned Nrf2 activator 4.1%, Nrf2 block 4.6%, miR-21 reporter -38.4% and A549 tox -2.5%.
`Clc1ccc(Nc2ncnc3ccc(Br)cc23)cc1` gave Nrf2 activator 4.4%, Nrf2 block 13µM*, Mito fusion act -0.2%, miR-21 reporter 24.2% and A549 tox -10.0%.
For COc1ccc(C2=Nn3c(nnc3-c3cccc(OC)c3OC)SC2)c(OC)c1 the results were Nrf2 block -11.9% and A549 tox -3.3%.
CC(C)(C)n1nnnc1C(c1ccc(C(F)(F)F)cc1)N(Cc1ccc(F)cc1)Cc1ccco1 (stereo not drawn) was read as Nrf2 activator 4.6%, Nrf2 block inconclusive, Mito fusion act 0.0%, miR-21 reporter 5.2% and A549 tox -22.5%.
For CC(C)(C)n1nnnc1C(c1ccc(C(F)(F)F)cc1)N(Cc1ccccc1)Cc1ccco1 (stereo not drawn) the results were Nrf2 activator -0.6%, Nrf2 block 14.6µM*, Mito fusion act -0.1%, miR-21 reporter -1.7% and A549 tox -26.9%.
Screening CCOc1ccc(OCC)c(Nc2nc3ccc(Cl)cc3n3cnnc23)c1 returned Nrf2 activator 5.4%, Nrf2 block 11.0%, miR-21 reporter -10.2% and A549 tox 0.8%.
Screening Oc1ccc(CNc2cccnc2)c2cccnc12 returned Nrf2 block 6.8% and A549 tox 2.9%.
Screening Cc1cccc(NC(=O)COc2ccc(-c3nn(C)c(=O)c4ccccc34)cc2)c1 returned Nrf2 activator -2.7%, Nrf2 block 23.1µM*, Mito fusion act 6.9%, miR-21 reporter 9.5% and A549 tox inconclusive.
`Cc1ccc2[nH]cc(C(c3ccccc3)c3cccs3)c2c1` (stereo not drawn) gave Nrf2 activator 0.0%, Nrf2 block inconclusive, miR-21 reporter 14.5% and A549 tox 1.2%.
Screening Nc1c(N2CCCC2)cc(Cl)c2nonc12 returned Nrf2 activator 0.8%, Nrf2 block 16.4µM*, Mito fusion act -9.0%, miR-21 reporter -5.9% and A549 tox inconclusive.
For CC(=O)NCCNc1nc2cc(-c3ccccc3)sc2c(=O)n1C the results were Nrf2 activator 1.2%.
COc1ncccc1-c1cc2nc(NCCNC(C)=O)n(C)c(=O)c2s1 was read as Nrf2 activator 3.55µM*.
For CC(=O)c1cccc(NC(=O)c2cc3nc(-c4ccc(Br)cc4)cc(C(F)(F)F)n3n2)c1 the results were Nrf2 activator 1.0%, miR-21 reporter -0.9% and A549 tox 4.8%.
`COC(=O)C1=C(C)N(c2cc(Cl)cc(Cl)c2)C(=O)C1` gave Nrf2 activator inconclusive, Nrf2 block 9.2µM*, Mito fusion act -11.6%, miR-21 reporter 22.7% and A549 tox -15.0%.
For COc1ccc(-c2nn(-c3ccccc3)cc2/C=C2/SC(=S)N(CCC(=O)O)C2=O)cc1 the results were Nrf2 activator 2.3%, Nrf2 block 23.1µM*, Mito fusion act 11.8%, miR-21 reporter -11.6% and A549 tox inconclusive.
Screening COc1cc(NC(=O)Nc2nnc(N3CCCCCC3)s2)cc(OC)c1 returned Nrf2 activator -0.6%, Nrf2 block inconclusive, miR-21 reporter -15.2% and A549 tox 7.9%.
Screening CCOC(=O)c1c(C)[nH]c(C)c1C(=O)CSc1nc2ccccc2c(=O)n1-c1ccccc1C returned Nrf2 activator 5.9%, Nrf2 block inconclusive, Mito fusion act 8.7%, miR-21 reporter -7.5% and A549 tox inconclusive.
`CCOC(=O)c1c(C)[nH]c(C)c1C(=O)CSc1nc2ccccc2c(=O)n1-c1ccc(F)cc1` gave Nrf2 activator 5.5%, Nrf2 block 23.1µM*, Mito fusion act 14.8%, miR-21 reporter 10.0% and A549 tox inconclusive.
Screening Nc1ccc(S(=O)(=O)N2CCN(S(=O)(=O)c3c(F)cccc3F)CC2)cc1 returned Nrf2 block -1.1% and A549 tox 1.2%.
